Patent US7169574B2, “Fluorescence detection of proteases or peptidases” (Institut National de la Sante et de la Recherche Medicale …, priority 2000, dated 2007)

By UniProt entry, the sequences of proteins in these tests, tags left out. Residues count along the entry.
UniProt P42892, 1-754 isoform 3: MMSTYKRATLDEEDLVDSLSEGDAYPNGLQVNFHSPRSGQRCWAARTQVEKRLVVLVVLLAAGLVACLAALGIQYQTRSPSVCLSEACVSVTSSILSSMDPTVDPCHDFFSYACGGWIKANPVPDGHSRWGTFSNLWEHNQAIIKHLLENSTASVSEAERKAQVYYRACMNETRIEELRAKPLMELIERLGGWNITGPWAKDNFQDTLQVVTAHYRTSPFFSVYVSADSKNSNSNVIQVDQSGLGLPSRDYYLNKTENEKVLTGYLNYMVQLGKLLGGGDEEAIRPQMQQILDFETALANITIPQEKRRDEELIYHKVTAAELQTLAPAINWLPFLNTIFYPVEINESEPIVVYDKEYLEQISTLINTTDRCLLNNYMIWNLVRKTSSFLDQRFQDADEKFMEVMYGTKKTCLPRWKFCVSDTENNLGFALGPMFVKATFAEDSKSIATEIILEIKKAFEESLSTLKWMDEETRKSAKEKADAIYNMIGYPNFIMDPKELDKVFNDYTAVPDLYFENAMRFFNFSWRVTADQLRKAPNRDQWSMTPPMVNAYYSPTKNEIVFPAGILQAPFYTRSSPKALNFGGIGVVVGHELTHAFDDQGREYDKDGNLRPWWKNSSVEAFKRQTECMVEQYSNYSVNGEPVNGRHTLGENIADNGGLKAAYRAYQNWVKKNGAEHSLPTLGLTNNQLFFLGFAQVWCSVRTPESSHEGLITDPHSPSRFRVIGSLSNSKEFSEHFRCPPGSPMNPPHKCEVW

What was measured:
[1] = target: endothelin-converting enzyme (ECE) (Homo sapiens, UniProt P42892); experiment: Fluorimetric ECE activity assay with fluorescent peptide substrates (96-well plates); conditions: read-out: Km (affinity constant of the enzyme for a substrate); 50 mM Tris-maleate buffer, pH 6.5; calculated using the ENZFITTER program
Description: Various preparations containing ECE can be used, such as, for example, recombinant human ECE-1c expressed in Cos-1 cells (Shimada et al., J. Biol. Chem. (1994) 269, 18275–18278) or CHO cells (Xu et al. Cell (1994) 78, 473–485).
In all cases, the presence of the enzyme is tested by Western blotting using an antibody and its concentration is evaluated by comparison with the purified enzyme.
The ECE activity is determined in 96-well plates, generally under the following conditions:
100 μl of 50 mM Tris-maleate buffer, pH 6.5, 20 μM or 5 μM of fluorescent peptide 1s or 2s and 10 μl of a solution of ECE diluted as a function of its purity and such that the cleavage of the fluorescent substrate remains less than 5%. […] The reaction is stopped in various ways, for example heating to 90° C., abrupt cooling to 4° C., adding an organic solvent such as dioxane to 20% of the final volume, and then the reading is performed using a fluorimeter (λex=340 nm; λem=400 nm) optionally coupled to the automated analysis system. The use of a network fluorimeter considerably further increases the sensitivity of the assay by reading the fluorescence at 377 nm. […]
The KI values for the inhibitors can be determined automatically using the degradation percentages at various concentrations and comparison with a standard range. […]

ECE = ECE (Homo sapiens, UniProt P42892); experiment: HPLC analysis of products formed on incubation with ECE; conditions: single cleavage at the PyA-pNF peptide bond

## CSCC[C@H](NC(=O)[C@H](CC(C)C)NC(=O)CNC(=O)[C@H](Cc1ccc([N+](=O)[O-])cc1)NC(=O)[C@H](Cc1ccc2ccc3cccc4ccc1c2c34)NC(=O)[C@H](CCC(N)=O)NC(=O)[C@H](CCC(N)=O)NC(=O)[C@@H]1CCCN1C(=O)[C@H](CCCCN)NC(=O)[C@@H]1CCCN1C(=O)[C@H](CCCNC(=N)N)NC(C)=O)C(N)=O
[1]
  Km: 2 µM
ECE
  metabolites produced when incubated with ECE: only two metabolites
